Columns and labels:
[1] = system: AR N/C interaction; experiment: Fluorescent-Two Hybrid assay for AR N/C interaction; format: cell-based; settings: BHK cells, 10 μM, media containing androgens
[2] = system: AR-V7; experiment: AR-V7 mRNA and protein expression in LNCaP-95 cells; format: cell-based; settings: 10 μM, 48 hours

Compound | AR interdomain (N/C) interaction [1] | AR-V7 mRNA expression ([2]; relative to RPL19) | AR-V7 protein abundance ([2]; western blot)
CNC(=O)c1ccc(N2C(=S)N(c3cnc(C#N)c(C(F)(F)F)c3)C(=O)C23CCC3)cc1F [ARN509] | suppressed AR interdomain interaction | – | –
CNC(=O)c1ccc(N2C(=S)N(c3ccc(C#N)c(C(F)(F)F)c3)C(=O)C2(C)C)cc1F [enzalutamide] | suppressed AR interdomain interaction | increased AR-V7 mRNA expression | increased AR-V7 mRNA expression and protein levels

From publication PMC5010535 (Cancer research, 2016)
